Laboratory results as given in article PMC12794078, “Real-Time Binding Kinetics of Small Molecules to CA IX in Live Suspension Cells Using SPR Microscopy” (ACS Medicinal Chemistry Letters, 2025).

Key:
[1] = molecular target: CA IX on live Ramos B cells (Homo sapiens, UniProt Q16790); assay: SPRM kinetic titration of small molecules on live Ramos B suspension cells (1:1 kinetic model, 600 ROIs)
[2] = molecular target: CA II; conditions: ex vitro purified CA II, published values; reference number not given; read-out: Reported values CA II; cited from earlier work

## NS(=O)(=O)c1ccc(C(=O)O)cc1 [4-CBS, 4-Carboxybenzenesulfonamide]
[1]
  k a, SPRM results for CA IX: 1.10 × 10^03 M^–1 s^–1
  kd, SPRM results for CA IX: 1.19 × 10^–03 s^–1
[2]
  Kd: 893 nM
